Assay outcomes as filed in PubChem.
Hits are enriched below; roughly 2.3% of the tested compounds scored in any of these assays.
Mito fusion yeast: inhibitors of mitochondrial division or activators of mitochondrial fusion | AID 485298 | S. cerevisiae fusion-defective mutant growth rescue, CellTiterGlo 48 h | actives 0.23% (n = 320,000) | Potency, µM (top dose mostly 46.1 µM), most hits filed as activators; note: nearly all actives have a fitted effect of over 45% in size
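Growth-rescue viability read-out: after 48 h at the non-permissive 37C in glycerol/ethanol YPEG, yeast mitochondrial fusion mutants are measured by CellTiterGlo luminescence; compounds (23 nl pinned per well) restoring growth score as division inhibitors or fusion activators.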
Glioma ERSR ind: inducers of ER stress response in human glioma cells; actives 0.02% (n = 420,000); Potency, µM, usual class: activators; U87-MG GRP78 promoter luciferase reporter, 16 h; note: series mostly up to about 76 µM; nearly all actives have a fitted effect of over 35% in size
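ERSR induction read as luciferase luminescence (Bright-Glo, 10 min at room temperature) in stably transfected human U87-MG glioma cells exposed to compounds for 16 h, using GRP78 as sensor.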
miR-21 reporter: raises the signal of a miR-21 reporter; Potency, µM (doses to about 38.3 µM); HeLa miR-21 FLuc reporter, luciferase, 48 h; AID 2288; 340,000 tested, under 10 active; active = well fitted rising curve with a large enough effect; inconclusive = small, poorly fitted or top-dose-only effect; inactive = no such curve, though single readings can be large or run the other way;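 further: miR-21 action dims this reporter so a rising signal means less miR-21 action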
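Luminescence from a firefly luciferase reporter carrying a miR-21 binding site downstream, stably expressed under a CMV promoter in HeLa cells that make miR-21 endogenously, reports miRNA modulation after 48 h compound exposure up to approximately 40uM final.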
Nrf2 inh: inhibitors of Nrf2 signaling | Potency, µM (top dose mostly 46 µM), usual class: inhibitors | A549 ARE-Fluc reporter, luciferase luminescence, 18-24 h | actives 2.1% (n = 360,000); note: nearly all actives have a fitted effect of over 60% in size
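Two sequential reads on A549 ARE_Fluc cells exposed to compound for 18-24 h: a CellTiter-Fluor fluorescence read for viability, then a luciferase luminescence read for Nrf2/ARE activity.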
A549 tox-1: kills or reduces viability of A549 cells in Nrf2 counter-screen. Potency, µM (titrated, usually from 46 µM), usual class: inhibitors. AID 504648. A549 ARE-Fluc cells, CellTiter-Fluor viability, 18-24 h. actives 0.16% (n = 390,000)
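A549 ARE_Fluc cells in 5% FBS OPTI-MEM were exposed to compounds in concentration-response for 18-24 h at 37 deg C. Viability was read by CellTiter-Fluor fluorescence (Ex 405/Em 525) after 30 min, before the luciferase read.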
Nrf2 activator: activates Nrf2 signaling | AREc32 ARE-luciferase reporter (MCF7-derived line), luminescence, 24 h | Potency, µM (titrated, usually from 46.1 µM), actives largely listed as activators | actives 0.31% (n = 410,000); note: nearly all actives have a fitted effect of over 65% in size
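Each well held 1000 AREc32 cells, which were incubated with compound for 24 hr at 37 deg C after overnight attachment, and ARE reporter activity was quantified by firefly luciferase luminescence.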
FLuc counter 3: firefly luciferase inhibition, Nrf2 hit validation. shares compounds with Nrf2 inh. actives 4% (n = 1,400). Potency, µM (highest dose often 57.5 µM), hits mostly inhibitors. purified firefly luciferase, luminescence inhibition; note: nearly all actives have a fitted effect of over 65% in size
A549 tox-2: toxic to A549 ARE-Fluc cells in Nrf2 counterscreen. shares compounds with Nrf2 inh. A549 ARE-Fluc cells, cytotoxicity counterscreen. Potency, µM (doses to about 46.1 µM), usual class: inhibitors. actives 2% (n = 1,400);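 note: cells exposed to compounds for 18 to 24 hours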
Nrf2 ARE inh: confirmation of Nrf2 inhibitors in A549 ARE reporter cells | AID 720524 | shares compounds with Nrf2 inh | A549 ARE-firefly luciferase reporter, luminescence | actives 74% (n = 1,400) | Potency, µM (highest dose often 46.1 µM), most hits filed as inhibitors; note: nearly all actives have a fitted effect of over 65% in size
Each line names hits and unclear results; the compound was inactive in the other large screens (follow-up assays come after a bar, where shown). Unless noted, calls come from the whole dose curve; as a rule, active = well fitted curve in the direction sought with a large enough effect; inconclusive = small, poorly fitted or top-dose-only effect, or another doubt; inactive = no such curve, though single readings can be large; an effect the other way counts as inactive or inconclusive.

Clc1ccc(C[n+]2c(-c3ccccc3)cc(-c3ccccc3)cc2-c2ccccc2)cc1	Nrf2 inh 21µM, A549 tox-1 inconclusive (no result: miR-21 reporter)
C[n+]1c(-c2ccccc2)cc(-c2ccc(O)cc2)cc1-c1ccccc1	none
Fc1ccc(C[n+]2c(-c3ccccc3)cc(-c3ccccc3)cc2-c2ccccc2)cc1	Nrf2 inh 18µM, A549 tox-1 inconclusive (no result: miR-21 reporter)
COc1ccc(-c2nn(CCC#N)cc2C(=O)Nc2ccccc2Br)cc1	none
CCCCn1c(O)c(C(CC)=Nc2ccc(OCC)cc2)c(=O)[nH]c1=O	Nrf2 inh 13µM
Brc1c(Br)c(Br)c2n[nH]nc2c1Br	Mito fusion yeast 4.6µM (no result: miR-21 reporter, Nrf2 inh, A549 tox-1, Nrf2 activator)
CCCNS(=O)(=O)c1ccc(OCC(=O)N2CCN(Cc3ccc4c(c3)OCO4)CC2)c(C)c1	Nrf2 inh 12µM (no result: miR-21 reporter)
CCCNS(=O)(=O)c1ccc(OCC(=O)N2CCN(Cc3ccc4c(c3)OCO4)CC2)cc1	Nrf2 inh 8.2µM
CCN(CC)c1ccc(/C=C2\C(=O)NC(=S)N(c3ccc(OC)cc3OC)C2=O)o1	A549 tox-1 13µM (no result: Mito fusion yeast, miR-21 reporter)
C[N+]1(C)CCc2cc3c(cc2C1C1OC(=O)c2c1ccc1c2OCO1)OCO3 (stereo not given)	none (no result: Mito fusion yeast, miR-21 reporter, Nrf2 inh, A549 tox-1, Nrf2 activator)
COc1cc2nc(CN3CC=C(c4ccccc4)CC3)[nH]c(=O)c2cc1OC	Nrf2 inh 2.3µM, A549 tox-1 inconclusive (not shown: Mito fusion yeast, miR-21 reporter) | FLuc counter 3 inactive | A549 tox-2 inconclusive
CN1CC=C(c2c[nH]c3ccccc23)CC1	Nrf2 inh 1.8µM, A549 tox-1 inconclusive | FLuc counter 3 inactive | A549 tox-2 inactive | Nrf2 ARE inh 16µM
CCOC(=O)c1ncn2c1CN(C)C(=O)c1cc(F)ccc1-2	Nrf2 inh 2.1µM | FLuc counter 3 inactive | A549 tox-2 inactive | Nrf2 ARE inh 7.3µM
CC(=O)c1cn(Cc2ccccc2C#N)c2ccccc12	Nrf2 inh 1µM, A549 tox-1 inconclusive | FLuc counter 3 inactive | A549 tox-2 inactive | Nrf2 ARE inh inactive
c1ccc2c(c1)[IH]c1ccccc1-2	Nrf2 inh 0.23µM, A549 tox-1 9.2µM (no result: Mito fusion yeast, miR-21 reporter) | FLuc counter 3 inactive | A549 tox-2 inactive | Nrf2 ARE inh inconclusive
O=C1c2ccccc2C(=O)c2ccccc21	none (no result: Mito fusion yeast, miR-21 reporter, Nrf2 inh, A549 tox-1, Nrf2 activator)
COc1ccc(CC2NCC(O)C2OC(C)=O)cc1 (stereo not given)	Nrf2 inh 0.46µM, A549 tox-1 inconclusive (no result: Mito fusion yeast, miR-21 reporter) | FLuc counter 3 inactive | A549 tox-2 inactive | Nrf2 ARE inh 1.5µM
COc1ccc(C[C@H]2NC[C@H](O)[C@@H]2OC(C)=O)cc1	none (no result: Mito fusion yeast, miR-21 reporter, Nrf2 inh, A549 tox-1, Nrf2 activator)
CCC(C)C1NC(=O)C(NC(=O)C(CC(C)C)N(C)C(=O)C2CCCN2C(=O)C(C)O)C(C)OC(=O)C(Cc2ccc(OC)cc2)N(C)C(=O)C2CCCN2C(=O)C(CC(C)C)NC(=O)[C@H](C)C(=O)[C@H](C(C)C)OC(=O)CC1O (stereo not given in full)	Nrf2 inh 0.0073µM, A549 tox-1 0.037µM (no result: Mito fusion yeast, miR-21 reporter) | FLuc counter 3 inactive | A549 tox-2 inconclusive | Nrf2 ARE inh 0.01µM
C#CCCC[C@@H]1OC(=O)CNC(=O)C([C@@H](C)CC)NC(=O)[C@@H]2CCCN2C(=O)C([C@@H](C)CC)OC(=O)[C@H](Cc2ccccc2)N(C)C(=O)[C@H](C(C)C)NC(=O)C1(C)C (stereo not given in full)	none (no result: Mito fusion yeast, miR-21 reporter, Nrf2 inh, A549 tox-1)
COc1ccc(CCNCc2cccn2C)cc1	none
